Results taken from PubChem BioAssay (NCI).
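These data come from cells grown in 96-well plates and exposed to compound for 48 hours at five concentrations. TGI is the concentration that stops growth completely.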

What was measured:
Experiment in all cases: NCI tumour cell line growth inhibition, 48 h
MALME-3M melanoma = system: MALME-3M melanoma
HCT-15 colon = system: HCT-15 colon
OVCAR-5 ovarian = system: OVCAR-5 ovarian
EKVX NSCLC = system: EKVX NSCLC
HCC-2998 colon = system: HCC-2998 colon
A498 renal = system: A498 renal
OVCAR-4 ovarian = system: OVCAR-4 ovarian
MOLT-4 leukemia = system: MOLT-4 leukemia
OVCAR-3 ovarian = system: OVCAR-3 ovarian
CAKI-1 renal = system: CAKI-1 renal
SF-539 CNS = system: SF-539 CNS
SK-OV-3 ovarian = system: SK-OV-3 ovarian
TK-10 renal = system: TK-10 renal
RPMI-8226 leukemia = system: RPMI-8226 leukemia
IGROV1 ovarian = system: IGROV1 ovarian
A549 NSCLC = system: A549 NSCLC
NCI-H522 lung = system: NCI-H522 lung
NCI-H322M lung = system: NCI-H322M lung
SN12C renal = system: SN12C renal
HT29 colon = system: HT29 colon
CCRF-CEM leukemia = system: CCRF-CEM leukemia
MDA-MB-435 = system: MDA-MB-435
M14 melanoma = system: M14 melanoma
HL-60(TB) leukemia = system: HL-60(TB) leukemia
KM12 colon = system: KM12 colon
SK-MEL-2 melanoma = system: SK-MEL-2 melanoma
NCI/ADR-RES ovarian = system: NCI/ADR-RES ovarian
MDA-MB-231 breast = system: MDA-MB-231 breast
SF-268 CNS = system: SF-268 CNS
SK-MEL-28 melanoma = system: SK-MEL-28 melanoma
SF-295 CNS = system: SF-295 CNS
UACC-62 melanoma = system: UACC-62 melanoma
HCT-116 colon = system: HCT-116 colon
DU-145 prostate = system: DU-145 prostate
SNB-75 CNS = system: SNB-75 CNS
RXF 393 renal = system: RXF 393 renal
SW-620 colon = system: SW-620 colon
LOX IMVI melanoma = system: LOX IMVI melanoma
U251 CNS = system: U251 CNS
ACHN renal = system: ACHN renal
NCI-H23 lung = system: NCI-H23 lung
NCI-H460 lung = system: NCI-H460 lung
NCI-H226 lung = system: NCI-H226 lung
786-0 renal = system: 786-0 renal
MDA-N = system: MDA-N
COLO 205 colon = system: COLO 205 colon
SK-MEL-5 melanoma = system: SK-MEL-5 melanoma
HS 578T breast = system: HS 578T breast
UACC-257 melanoma = system: UACC-257 melanoma
K-562 leukemia = system: K-562 leukemia
PC-3 prostate = system: PC-3 prostate
SNB-19 CNS = system: SNB-19 CNS
T-47D breast = system: T-47D breast
HOP-62 NSCLC = system: HOP-62 NSCLC

Measured: TGI

CCOP1(=O)N=C(NC2=NC(C(F)(F)F)(C(F)(F)F)OC(C(F)(F)F)(C(F)(F)F)O2)N(C)C1(C)C (centres undefined)
> 100 µM: all assays above
